{"source": "ChEMBL document CHEMBL3763146", "about": "(J Med Chem, 2016)", "species_on_record": "Homo sapiens", "assay": "Selectivity ratio of IC50 for human SERT to EC50 for human adrenergic beta3 receptor"}
{"molecule": "C[C@@H](C(=O)Nc1ccc(C[C@@H]2CC[C@H]([C@H](O)c3ccccc3)N2)cc1)n1ncccc1=O", "values": [{"measurement": "Ratio IC50/EC50", "result": "> 800"}]}
